Assay results from ChEMBL document CHEMBL3880381, “Selective inhibitors of aggrecanase in osteoarthritis treatment” (2001).

The compounds below were run against T1, Interstitial collagenase (Homo sapiens, UniProt P03956) (assay: Inhibition of trypsin-activated recombinant human collagenase 1 preincubated with protein followed by addition of DNP-Pro-Cha-Gly-Cys(Me)-His-Ala-Lys(NMA)-NH2 as substrate measured after 20 mins by fluorescence analysis).
T1 sequence (P03956 whole entry): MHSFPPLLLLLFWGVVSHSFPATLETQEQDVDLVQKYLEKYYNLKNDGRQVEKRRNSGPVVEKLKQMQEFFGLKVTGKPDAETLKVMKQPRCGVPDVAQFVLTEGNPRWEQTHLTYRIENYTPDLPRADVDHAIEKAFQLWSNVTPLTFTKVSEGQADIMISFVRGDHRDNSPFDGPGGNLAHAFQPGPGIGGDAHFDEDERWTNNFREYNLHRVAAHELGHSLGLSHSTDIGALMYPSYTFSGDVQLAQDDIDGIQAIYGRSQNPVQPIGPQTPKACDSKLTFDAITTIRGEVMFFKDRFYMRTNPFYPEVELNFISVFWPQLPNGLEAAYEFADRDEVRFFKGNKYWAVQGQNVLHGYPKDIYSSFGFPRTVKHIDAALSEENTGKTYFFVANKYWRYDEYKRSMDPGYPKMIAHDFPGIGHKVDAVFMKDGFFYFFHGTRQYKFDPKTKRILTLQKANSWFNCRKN
`C[C@@]1(O)CCCN(S(=O)(=O)c2ccc(OCc3ccccc3Cl)cc2)[C@H]1C(=O)NO` was tested, and the IC50 was 200 to 1000 nM. `Cc1ccc(F)cc1COc1ccc(S(=O)(=O)N2CCC[C@@](C)(O)[C@@H]2C(=O)NO)cc1` was tested, and the IC50 was 200 to 1000 nM. Compound `Cc1cc(F)ccc1COc1ccc(S(=O)(=O)N2CCC[C@@](C)(O)[C@@H]2C(=O)NO)cc1` has an IC50 of 200 to 1000 nM. `CNC(=O)[C@H](Cc1ccc(OC)cc1)NC(=O)[C@@H](CC(=O)NO)CC(C)C` showed an IC50 of 3 nM.
